Protein sequences, listed by entry. Tags and fused reporters are not part of them.
UniProt P14842, whole entry: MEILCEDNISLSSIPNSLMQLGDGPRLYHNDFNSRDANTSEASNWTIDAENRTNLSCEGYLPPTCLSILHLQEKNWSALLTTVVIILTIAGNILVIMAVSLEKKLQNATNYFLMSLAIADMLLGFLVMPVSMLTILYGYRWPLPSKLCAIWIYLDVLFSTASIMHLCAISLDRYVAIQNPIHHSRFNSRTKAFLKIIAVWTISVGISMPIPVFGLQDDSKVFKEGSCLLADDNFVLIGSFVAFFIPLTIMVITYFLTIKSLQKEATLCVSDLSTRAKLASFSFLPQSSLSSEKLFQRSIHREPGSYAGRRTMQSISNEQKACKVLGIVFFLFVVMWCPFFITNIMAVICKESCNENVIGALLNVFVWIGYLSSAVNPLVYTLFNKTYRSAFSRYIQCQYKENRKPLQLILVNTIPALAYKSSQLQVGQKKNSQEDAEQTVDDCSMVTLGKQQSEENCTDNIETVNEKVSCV
UniProt P31652, whole entry: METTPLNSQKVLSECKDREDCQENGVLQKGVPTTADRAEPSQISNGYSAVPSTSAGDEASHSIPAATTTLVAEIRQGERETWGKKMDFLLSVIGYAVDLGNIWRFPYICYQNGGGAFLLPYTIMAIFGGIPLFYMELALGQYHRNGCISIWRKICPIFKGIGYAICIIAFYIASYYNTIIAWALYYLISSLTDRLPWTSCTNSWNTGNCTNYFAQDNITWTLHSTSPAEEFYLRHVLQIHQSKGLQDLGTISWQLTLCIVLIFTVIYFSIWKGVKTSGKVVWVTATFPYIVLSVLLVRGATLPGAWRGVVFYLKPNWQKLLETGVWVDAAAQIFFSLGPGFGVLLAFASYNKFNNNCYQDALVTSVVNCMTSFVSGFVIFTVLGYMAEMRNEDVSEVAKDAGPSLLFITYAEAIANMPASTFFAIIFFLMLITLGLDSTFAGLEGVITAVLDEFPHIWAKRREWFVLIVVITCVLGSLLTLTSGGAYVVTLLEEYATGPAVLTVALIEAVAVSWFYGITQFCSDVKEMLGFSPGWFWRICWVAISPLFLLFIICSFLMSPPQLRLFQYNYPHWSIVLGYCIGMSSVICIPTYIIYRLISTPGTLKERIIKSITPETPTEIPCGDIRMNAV

According to BindingDB's records for doi:10.1016/0014-2999(89)90363-4 (Novo Industri, 1989):

Columns and labels:
[1] = target: 5-hydroxytryptamine receptor 2A (Rattus norvegicus, UniProt P14842)
[2] = target: Sodium-dependent serotonin transporter (Rattus norvegicus, UniProt P31652)

SMILES	Ki [1] [nM]	Ki [2] [nM]
CN(C)CCCN1c2ccccc2CCc2ccccc21	217	
CN1Cc2c(N)cccc2[C@H](c2ccccc2)C1 [(+/-)-2-Methyl-4-phenyl-1,2,3,4-tetrahydro-isoquinolin-8-ylamine]		1820
COC(=O)[C@H]1[C@@H](OC(=O)c2ccccc2)C[C@@H]2CC[C@H]1N2C [Cocaine (-)]		389
Fc1ccc(C(OCCN2CCN(CCCc3ccccc3)CC2)c2ccc(F)cc2)cc1 [Vanoxerine]		170
